Data on 1 substance can be found in PMC8541915.

The assay concerns the target YFP-SERCA2a (type 2 sarco/endoplasmic reticulum Ca2+-ATPase, cardiac isoform 2a, labelled with YFP) (human) (UniProt P16615). Put plainly: FRET or BRET. (BRET reads energy transfer from a luciferase to a nearby fluorophore.)

Turning to “mCer-PS1 (presenilin 1 with mCerulean fused to its N-terminus) (from UniProt P49768 1-467) (natural protein)”, the stoichiometry N (PS1 per SERCA2a) turned out to be 1.
